The values below are quoted from earlier work in article PMC7238232, “Acamprosate Is a Substrate of the Human Organic Anion Transporter (OAT) 1 without OAT3 Inhibitory Properties: Implications for Renal Acamprosate Secretion and Drug–Drug Interactions” (Pharmaceutics, 2020).

Read-outs that look alike come from different tables or passages of the source.

The subject of this series is human OAT1. The conditions noted are these: cited from earlier work.

The term IC50 denotes the point on the concentration scale where inhibition reaches its midpoint. As for `CC(=O)Oc1ccccc1C(=O)O` [acetylsalicylate], the IC50 (read-out: IC50 of other drug substances inhibiting OAT1) is 769 µM.

With `CCCN(CCC)S(=O)(=O)c1ccc(C(=O)O)cc1` [probenecid], for the setting “read-out: IC50, probenecid inhibition of PAH uptake, published values, other cell models expressing human OAT1”, the IC50 is 6 to 31 µM.
